Measurements published in publication PMC2225448 (Structure(London, England:1993), 2007).
Like-named read-outs stand apart in the source and are kept apart here.

Protein sequences, listed by entry. Tags and fused reporters are not part of them. Residues count along the entry.
UniProt O14508, 32-198 limits assumed: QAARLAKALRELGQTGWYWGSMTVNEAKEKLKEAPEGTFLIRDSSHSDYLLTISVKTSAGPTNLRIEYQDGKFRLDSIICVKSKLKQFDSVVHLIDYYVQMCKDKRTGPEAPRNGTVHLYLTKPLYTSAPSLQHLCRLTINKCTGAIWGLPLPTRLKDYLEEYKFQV
UniProt Q8WXH5, 274-437: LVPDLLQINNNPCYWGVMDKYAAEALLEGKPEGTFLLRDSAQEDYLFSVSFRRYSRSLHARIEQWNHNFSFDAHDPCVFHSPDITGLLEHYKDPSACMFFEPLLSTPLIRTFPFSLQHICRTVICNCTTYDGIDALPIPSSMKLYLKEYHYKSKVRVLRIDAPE

Experiments:
SOCS2/ElonginBC [1] = target: T1, SOCS2/ElonginBC (Homo sapiens, UniProt O14508+Q15369+Q15370); assay: ITC binding of phosphotyrosine peptides to SOCS2/ElonginBC; conditions: 50 mM HEPES pH 7.5, 150 mM NaCl, 1 mM DTT, 20°C; for Kd: 0.3–0.4 mM peptide injected into 15 μM protein, single binding site model; for KB × 10^5: association constant, ± curve fitting error
SOCS4/ElonginBC = target: T2, SOCS4/ElonginBC (Homo sapiens, UniProt Q15369+Q15370+Q8WXH5); assay: ITC binding of phosphotyrosine peptides to SOCS4/ElonginBC; conditions: 50 mM HEPES pH 7.5, 150 mM NaCl, 1 mM DTT, 20°C; for Kd: 0.3–0.4 mM peptide injected into 15 μM protein, single binding site model; for KB × 10^5: association constant, ± curve fitting error
T2 construct: Human SOCS4 (amino acids 274–437); made in house; host or cells: E. coli BL21(DE3)

SOCS2/ElonginBC [2] = target: T1, SOCS2/ElonginBC; conditions: ITC, association constant; ref Bullock et al., 2006; cited from earlier work

SMILES	Kd (SOCS2/ElonginBC [1]) [µM]	KB × 10^5 (SOCS2/ElonginBC [1])	Kd (SOCS4/ElonginBC) [µM]	KB × 10^5 (SOCS4/ElonginBC)	KB × 10^5 (SOCS2/ElonginBC [2])
CC[C@H](C)[C@H](NC(=O)[C@H](CC(=O)O)NC(=O)[C@H](CO)NC(=O)[C@@H](NC(=O)[C@H](CCC(N)=O)NC(=O)[C@H](C)NC(=O)[C@H](Cc1ccc(OP(=O)(O)O)cc1)NC(=O)[C@H](Cc1ccccc1)NC(=O)[C@H](CC(=O)O)NC(=O)[C@@H](NC(=O)[C@@H](N)CC(N)=O)[C@@H](C)CC)C(C)C)C(=O)N[C@H](C(=O)O)[C@@H](C)O [GHR pY487]	11.3	0.89 ± 0.64 10^5 M^−1	5.1	1.96 ± 0.11 10^5 M^−1	–
CC[C@H](C)[C@H](NC(=O)[C@@H](NC(=O)[C@H](Cc1ccc(OP(=O)(O)O)cc1)NC(=O)[C@H](CCC(=O)O)NC(=O)[C@H](Cc1ccccc1)NC(=O)[C@H](CO)NC(=O)[C@H](C)N)[C@@H](C)O)C(=O)N[C@@H](CC(C)C)C(=O)N[C@@H](CC(=O)O)C(=O)N1CCC[C@H]1C(=O)N[C@@H](CO)C(=O)O [EpoR pY402]	–	–	–	–	1.42 ± 0.27 10^5 M^−1
CC(C)C[C@H](NC(=O)[C@H](Cc1ccc(OP(=O)(O)O)cc1)NC(=O)[C@H](CS)NC(=O)[C@@H](NC(=O)[C@H](CO)NC(=O)[C@@H](N)CCCCN)C(C)C)C(=O)NCC(=O)N[C@H](C(=O)N[C@H](C(=O)N[C@@H](CO)C(=O)N[C@H](C(=O)N[C@@H](CC(N)=O)C(=O)O)C(C)C)[C@@H](C)O)C(C)C [LeptinR pY1077]	–	–	5.5	1.82 ± 0.13 10^5 M^−1	–
CC(C)[C@H](NC(=O)[C@H](CCCCN)NC(=O)[C@H](Cc1ccc(O)cc1)NC(=O)[C@H](Cc1ccc(OP(=O)(O)O)cc1)NC(=O)[C@H](CCC(=O)O)NC(=O)[C@H](CCCCN)NC(=O)[C@H](CC(=O)O)NC(=O)[C@@H](N)CCC(N)=O)C(=O)N[C@@H](CCCCN)C(=O)N[C@@H](CCC(=O)O)C(=O)N1CCC[C@H]1C(=O)NCC(=O)O [JAK2 pY1007]	8.1	1.23 ± 0.34 10^5 M^−1	2.9	–	–
CC[C@H](C)[C@H](NC(=O)[C@H](CO)NC(=O)[C@@H](NC(=O)[C@H](Cc1ccc(OP(=O)(O)O)cc1)NC(=O)[C@H](CC(=O)O)NC(=O)[C@@H]1CCCN1C(=O)[C@@H](NC(=O)[C@@H]1CCCN1)C(C)C)[C@@H](C)O)C(=O)N[C@@H](Cc1c[nH]cn1)C(=O)N[C@H](C(=O)N[C@H](C(=O)O)C(C)C)[C@@H](C)CC [GHR pY595]	–	–	–	–	6.08 ± 1.03 10^5 M^−1
CC(C)[C@H](NC(=O)[C@@H](NC(=O)[C@@H](NC(=O)[C@H](CO)NC(=O)[C@H](Cc1ccc(OP(=O)(O)O)cc1)NC(=O)[C@H](CCC(N)=O)NC(=O)[C@@H](NC(=O)[C@@H](NC(=O)[C@@H](N)CO)[C@@H](C)O)C(C)C)[C@@H](C)O)C(C)C)C(=O)N[C@@H](Cc1c[nH]cn1)C(=O)N[C@@H](CO)C(=O)O [gp130 pY759]	–	–	7.1	1.41 ± 0.17 10^5 M^−1	–
CC[C@H](C)[C@H](NC(=O)[C@H](Cc1ccc(O)cc1)NC(=O)[C@@H](NC(=O)[C@H](Cc1ccc(OP(=O)(O)O)cc1)NC(=O)[C@H](CC(N)=O)NC(=O)[C@H](CC(N)=O)NC(=O)CNC(=O)[C@@H](N)CC(N)=O)C(C)C)C(=O)N[C@@H](CC(=O)O)C(=O)N1CCC[C@H]1C(=O)N[C@H](C(=O)O)[C@@H](C)O [KIT pY568]	–	1.20 ± 0.23 10^5 M^−1	–	–	–
